From patent publication US20140350680A1, “PROCESS FOR MODIFYING THE SURFACE MORPHOLOGY OF A MEDICAL DEVICE” (priority 2011, published 2014)

Test system: human mesenchymal stem cells (hMSCs)
Assay: Osteogenic marker gene expression (RT-qPCR) of hMSCs on BMP2 functionalized PIPA scaffolds
Assay type: cell-based
Settings: preliminary
Protocol: 12 PIPA scaffolds (ø=4 mm, h=2 mm) were placed in vials containing 500 μl of 10% BSA in PBS supplemented with either 20 or 100 ng/ml BMP2. After vortexing the vials were centrifuged at 200 g for 10 min. The PIPA scaffolds were placed in petri dishes and vacuum dried for 2 hours (hr) at room temperature before stored at 4° C. overnight.
40000 hMSCs were seeded pr scaffold in DMEM high glucose supplemented with 10% FBS, 100 nM dexamethasone, 10 mM β-glycerophosphate, 50 μM L-ascorbic acid-2 phosphate, and 10^−8 M vitamin D and cultured for up to 14 days at 37° C., in a humidified atmosphere of 5% CO2. Media were changed twice a week.
Gene expression of osteogenic markers were analyzed after 2 hr, 6 hr, 2, 7, and 14 days using RT-qPCR

B1: BMP2: BMP2 at 20 or 100 ng/ml dip coated onto PIPA scaffolds (protein, UniProt P12643 283-396, looked up)
Bone morphogenetic protein 2: QAKHKQRKRLKSSCKRHPLYVDFSDVGWNDWIVAPPGYHAFYCHGECPFPLADHLNSTNHAIVQTLVNSVNSKIPKACCVPTELSAISMLYLDENEKVVLKNYQDMVVEGCGCR
Q: How did the “osteocalcin (OC) gene expression” value (20 ng/ml BMP2, after 14 days) turn out when B1 was run?
A: seems to stimulate

Q: And the runx2 gene expression (20 ng/ml BMP2, after two hours)?
A: seem to stimulate

Q: What about the “alkaline phosphatase (ALP) gene expression” value (100 ng/ml BMP2, after two days) of the same molecule?
A: seems to stimulate

Q: And the runx2 gene expression (100 ng/ml BMP2, after two hours)?
A: seem to stimulate
